Test results from PubChem BioAssay AID588473 (Sanford-Burnham Center for Chemical Genomics, 2011).
Only a part is listed here, and it is no random draw. The source made the active and inactive calls.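 Rule for the calls: active = activation of at least 50%, plus an integration ratio under a set limit after plate pattern correction; inactive = the rest.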

tested on: CRF-binding protein / CRF receptor 2 complex (human); experiment: agonists of CRF-BP/CRF-R2 complex, primary screen, cell-based, HEK293, calcium dye fluorescence, uHTS (AID 588473); settings: calcium dye fluorescence (FLIPR), at 13.2 µM, stronger effect = higher value, percent of saturating CRF peptide response;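 note: plate controls were neutral control wells without compound for no effect and CRF at EC100 for full effect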

| SMILES | activation |
| --- | --- |
| CCC(=O)N1C2C3N(C(=O)CC)C1C1N(C(=O)CC)C(C(N1C(=O)CC)N3C(=O)CC)N2C(=O)CC | inactive: -0.91% |
| O=C(OC1CN2CCC1CC2)c1ccccc1 (stereo not given) | inactive: 1.08% |
| CC(=O)NC(SC(=S)N(CC(C)C)CC(C)C)C(Cl)(Cl)Cl (stereo not given) | inactive: -1.76% |
| Cc1ccc(OP(=O)(Nc2ccccn2)Oc2ccc(C)cc2)cc1 | inactive: -0.85% |
| COC(=O)c1cc2c(s1)N=C(c1ccccc1)N(C)P2(=O)N1CCOCC1 (stereo not given) | inactive: 0.2% |
| O=c1c2cc([N+](=O)[O-])ccc2[nH]c2c([N+](=O)[O-])cc([N+](=O)[O-])cc12 | active: 128% |
| CN(C)C(=O)Oc1noc2ccccc12 | inactive: -1.43% |
| CC(NC(=O)COC(=O)C(O)(c1ccccc1)c1ccccc1)c1ccccc1 (stereo not given) | inactive: -5.35% |
| Cc1ccccc1OP(=O)(Nc1ccccn1)Oc1ccccc1C | inactive: -2.36% |
| Cc1ccc(NP(=O)(Oc2cccc(C)c2)Oc2cccc(C)c2)nc1 | inactive: -0.85% |
| c1ccc(-c2nn[nH]n2)c(-c2nn[nH]n2)c1 | inactive: -0.83% |
| CCNC(=S)/N=C(\N)N[N+](=O)[O-] | inactive: -2.63% |
| O=C(NC1CCS(=O)(=O)C1)NP(=S)(Oc1ccccc1)Oc1ccccc1 (stereo not given) | inactive: -4.93% |
| O=P1(N(CCCl)CCCl)OCCC2CCCCN21 (stereo not given) | inactive: 5.26% |
| C[C@H]1OP(=O)(Oc2ccccc2)C[C@@H]2O[C@@H]21 (stereo not given in full) | inactive: 0.35% |
| C[C@@H]1C=CCP(=O)(Oc2ccccc2)O1 (stereo not given in full) | inactive: -1.21% |
| Cc1ccccc1CN(C)C(=O)COC(=O)C(O)(c1ccccc1)c1ccccc1 | inactive: -0.72% |
| COC(=O)C1(C)COP(=O)(NCc2ccccc2)OC1 (stereo not given) | inactive: 1.1% |
| CC(=O)c1ccc(N2CC2c2ccncc2)cc1 (stereo not given) | inactive: 0.24% |
| N#C/C(=C\c1ccc(N(CCBr)CCBr)cc1)C(N)=O | inactive: -2.41% |
| CC(=O)Nc1ccc(Oc2c([N+](=O)[O-])cc([N+](=O)[O-])cc2[N+](=O)[O-])cc1 | inactive: -3.02% |
| CC(=O)Nc1ccc([As](=O)(O)O)c(O)c1 | inactive: -0.34% |
| CCOc1ccc(C2=NCC(CBr)S2)cc1 (stereo not given) | inactive: 0.22% |
| O=P1(Nc2nc3ccc(Cl)cc3s2)COc2ccccc2O1 (stereo not given) | inactive: -1.19% |
| CC(C)(C)C(=O)NC(Sc1ccccc1)C(Cl)(Cl)Cl (stereo not given) | inactive: -0.1% |

| SMILES | activation |
| --- | --- |
| CCc1cc(O)c([N+](=O)[O-])c(C)c1[N+](=O)[O-] | inactive: 6.96% |
| CC(C)C(=O)NC(Sc1ccccc1)C(Cl)(Cl)Cl (stereo not given) | inactive: 0.66% |
| O=P(Nc1nccs1)(c1ccccc1)c1ccccc1 | inactive: 0.71% |
| c1nnnn1CCn1cnnn1 | inactive: -1.81% |
| O=[As](O)(c1ccccc1)c1ccc(O)cc1 | inactive: -1.44% |
| O=[N+]([O-])c1ccc(O)c(/C=N/Nc2ccc([N+](=O)[O-])cc2[N+](=O)[O-])c1 | inactive: 39.7% |
| CC(=O)NC(SC(=S)N(C)C)C(Cl)(Cl)Cl (stereo not given) | inactive: 2.24% |
| O=[N+]([O-])c1ncn(CCn2cnc([N+](=O)[O-])n2)n1 | inactive: -1.17% |
| O=C(OC1CN2CCC1CC2)c1cccc(Cl)c1 (stereo not given) | inactive: -0.6% |
| C(Cc1nn[nH]n1)Cc1nn[nH]n1 | inactive: -3.04% |
| Nc1ccc([As](=O)(O)c2ccc([N+](=O)[O-])cc2)cc1 | inactive: 0.4% |
| O=P(Nc1ccccn1)(c1ccc(Br)cc1)c1ccc(Br)cc1 | inactive: -1.85% |
| CN(C)C1(CNC(=O)c2ccc(Cl)c(S(N)(=O)=O)c2)CCCCC1 | inactive: 0.34% |
| COc1ccc(N)c([N+](=O)[O-])c1[N+](=O)[O-] | inactive: -1.89% |
| C[C@H]1OP(=O)(Oc2ccccc2)[C@H](O)[C@H](O)[C@H]1N=[N+]=[N-] (stereo not given in full) | inactive: -0.13% |
| O=P(Nc1nc2ccccc2s1)(c1ccccc1)c1ccccc1 | inactive: -0.24% |
| O=[N+]([O-])c1ncn(CCn2ncnc2[N+](=O)[O-])n1 | inactive: 1.53% |
| CC(C)(C)C(=O)NC(Sc1ccncn1)C(Cl)(Cl)Cl (stereo not given) | inactive: 0.82% |
| O=C(O)CNc1ccc([As](=O)(O)O)cc1 | inactive: -2.6% |
| COC(=O)C1(C)COP(=O)(Nc2ccccc2)OC1 (stereo not given) | inactive: 0.94% |
| O=[N+]([O-])c1cccc(NC2=NCC(CBr)S2)c1 (stereo not given) | inactive: -1.98% |
| O=P1(N(CCCl)CCCl)OCCCS1 (stereo not given) | inactive: -2.05% |
| O=C(Nc1cc([As](=O)(O)O)ccc1O)c1ccccc1 | inactive: -0.71% |
| CCN(/C(=N/P(=O)(N1CCOCC1)N1CCOCC1)N1CCOCC1)c1ccc(OC)cc1 | inactive: -1.77% |
| C[N+]1=C2C=CC=CC=C2SC12C([N+](=O)[O-])=CC([N+](=O)[O-])=C[C-]2[N+](=O)[O-] (stereo not given) | inactive: -4.4% |

| SMILES | activation |
| --- | --- |
| Nc1ccc([As](=O)(O)c2ccc(N)cc2)cc1 | inactive: -1.86% |
| CC1CCN(C(=O)Oc2c(Cl)cc(Cl)c3cccnc23)CC1 | inactive: -0.67% |
| c1cc(-c2nn[nH]n2)ccc1-c1nn[nH]n1 | inactive: 2.28% |
| CN(C)C(=O)OCCc1n(C)cc[n+]1C | inactive: -1.23% |
| CC(C)c1nc(Nc2ccccc2)n(P(=O)(N(C)C)N(C)C)n1 | inactive: 34.2% |
| CC(C)=N/N=C(\N)N[N+](=O)[O-] | inactive: -1.53% |
| COc1ccc(C2=NCC(CBr)S2)cc1 (stereo not given) | inactive: -4.04% |
| CCc1nc2c(n1)c1c(non1O)c1c2no[n+]1[O-] | inactive: 8.26% |
| O=[N+]([O-])c1cc([N+](=O)[O-])c(CCNc2ccccc2)c([N+](=O)[O-])c1 | inactive: -0.24% |
| Cc1ccc(NP(=O)(Oc2ccccc2)Oc2ccccc2)nc1 | inactive: -0.81% |
| O=[N+]([O-])c1cccc2n[nH]nc12 | inactive: -1.76% |
| CC(=O)N1C2C3N(C(C)=O)C1C1N(C(C)=O)C(C(N1C(C)=O)N3C(C)=O)N2C(C)=O | inactive: -0.08% |
| O=C(NC(Sc1ccncn1)C(Cl)(Cl)Cl)c1ccccc1 (stereo not given) | inactive: -0.48% |
| Oc1ccccc1CNc1ccccn1 | inactive: 0% |
| Nc1cc(N)c2nonc2c1[N+](=O)[O-] | inactive: -2.08% |
| CC(C)CC(=O)NC(Sc1ccc(Cl)cc1)C(Cl)(Cl)Cl (stereo not given) | inactive: -2.78% |
| Cc1ccc(N/C(=N/P(=O)(N2CCOCC2)N2CCOCC2)N2CCOCC2)cc1 | inactive: 8.52% |
| CN(C(=O)Cc1ccc(Cl)c(Cl)c1)[C@H]1CCCC[C@H]1N1CCCC1 | inactive: 1.25% |
| NC(=O)c1cc([N+](=O)[O-])cc([N+](=O)[O-])c1N | inactive: -1.66% |
| CN1CCCC(OC(=O)C(c2ccccc2)c2ccccc2)C1 (stereo not given) | inactive: 4.04% |
| Clc1ccc(Cl)c(NC2=NCC(CBr)S2)c1 (stereo not given) | inactive: 0.57% |
| Cc1ccc(OP(=O)(Nc2nccs2)Oc2ccc(C)cc2)cc1 | inactive: 0.37% |
| COc1ccccc1OP(=O)(Nc1ccc(C)cn1)Oc1ccccc1OC | inactive: -0.07% |
| Nc1cccc2ccc([As](=O)(O)O)cc12 | inactive: 0.56% |
| CCN(N=Nc1nonc1N)c1nonc1N | inactive: 0.07% |

| SMILES | activation |
| --- | --- |
| O=P(Nc1nc2ccc(Cl)cc2s1)(c1ccccc1)c1ccccc1 | inactive: 0.2% |
| CN(C)P(=O)(N(C)C)n1c(Nc2ccccc2)nnc1-c1ccccc1 | inactive: 16.4% |
| CCCC1OP(N)(=O)OCC1CC (stereo not given) | inactive: 0.3% |
| CC(=O)Nc1ccc([As](=O)(O)O)cc1 | inactive: -1.58% |
| O=C(O)c1ccccc1[As](=O)(O)O | inactive: 2.22% |
| Cc1ccc(NP(=O)(Oc2ccccc2F)Oc2ccccc2F)nc1 | inactive: -1.44% |
| CN(C(=O)Cc1ccc(Cl)c(Cl)c1)[C@H]1CCCC[C@@H]1N1CCCC1 | inactive: 0.07% |
| Cc1cc(SC(NC(=O)c2ccc(F)cc2)C(Cl)(Cl)Cl)ncn1 (stereo not given) | inactive: 0.65% |
| CCOP(=O)(Nc1ccccc1)OCC | inactive: -0.67% |
| ClCCSc1nnc(-c2cccnc2)o1 | inactive: -0.24% |
| COC(=O)C1(C)COP(=O)(N2CCCCCC2)OC1 (stereo not given) | inactive: 0.23% |
| CC(C)c1ccc(OP(=O)(Nc2ccccn2)Oc2ccccc2F)cc1 (stereo not given) | inactive: 1.31% |
| O=[N+]([O-])c1cc([N+](=O)[O-])c(-c2ccn[nH]2)s1 | inactive: -0.28% |
| CC(C)NC(=O)NP(=O)(Oc1ccccc1)Oc1ccccc1 | inactive: -2.13% |
| CCN(CC)C(=S)SC(NC=O)C(Cl)(Cl)Cl (stereo not given) | inactive: -0.45% |
| O=C(OC1CN2CCC1CC2)c1cccc2[nH]cnc12 (stereo not given) | inactive: -0.83% |
| O=[N+]([O-])c1ccc(-c2cc([N+](=O)[O-])c(O)c([N+](=O)[O-])c2)cc1 | inactive: -1.85% |
| COc1cc(C(=O)NCC2(N3CCOCC3)CCCCC2)ccc1OCC(C)C | inactive: -0.43% |
| O=[As](O)(c1ccc(O)cc1)c1ccccc1O | inactive: 0.54% |
| C[As](=O)(O)c1cccc(C(=O)O)c1 | inactive: 1.53% |
| CC(Cc1ccc(O)cc1)NCC(O)c1cc(O)cc(O)c1 (stereo not given) | inactive: -0.09% |
| Cc1ccc(OP(=O)(Nc2ccc([N+](=O)[O-])cn2)Oc2ccc(C)cc2)cc1 | inactive: 0.32% |
| Cc1ccc2nc3c(c(C)c2c1)CC(C(Cl)Cl)S3 (stereo not given) | inactive: -0.08% |
| O=[N+]([O-])c1cc(Oc2ccc([N+](=O)[O-])cc2C(F)(F)F)cc([N+](=O)[O-])c1 | inactive: 4.31% |
| COc1ccc(N/C(=N/P(=O)(N2CCOCC2)N2CCOCC2)N2CCOCC2)cc1 | inactive: -0.97% |
